In US20090304692A1, “TRIAZINE COMPOUNDS AS PI3 KINASE AND MTOR INHIBITORS” (Wyeth, priority 2008, published 2009):

Molecular target: Human mTOR (FLAG-TOR) (Homo sapiens, UniProt P42345)
Assay: mTOR kinase assay (DELFIA format, purified enzyme)
Type: biochemical
Conditions: read-out: IC50 mTOR

COc1nc(-c2ccc(NC(=O)Nc3ccc(C(=O)N4CCNC(C)(C)C4)cc3)cc2)nc(N2CCOCC2)n1 [Example 247, 1-{4-[(3,3-dimethylpiperazin-1-yl)carbonyl]phenyl}-3-[4-(4-methoxy-6-morpholin-4-yl-1,3,5-triazin-2-yl)phenyl]urea]
IC50: 19 nM
